Lamin A splicing: changes lamin A minigene splicing in HeLa cells. HeLa LMNA splicing GFP/RFP minigene ratio, 48 h. Potency, µM (doses to about 46.1 µM), without a hit: at the top dose ratio change, negative = inhibition, hits mostly inhibitors. 200,000 compounds, 0.01% hits. AID 1487; active means well fitted inhibition curve with a large enough effect in the signal ratio, with a control signal flat, not every such curve was filed as active; inconclusive means small, poorly fitted or top-dose-only effect, or effect the other way, or a change in a side signal; the % refers to the signal ratio; further: potency means the concentration at half of the fitted maximal effect; on the % scale 0 is the no-effect control and ±100 the full control effect
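S3 HeLa stable clones carrying a lamin A-EGFP splicing minigene plus DsRed2 were seeded at 600 cells/well in Opti-MEM with 2% FBS, pin-dosed and incubated 48 h at 37°C. Acumen cytometry (488 nm) gave the GFP/RFP total-intensity ratio.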
ALDH1A1 inh: inhibitors of human aldehyde dehydrogenase 1A1; Purified ALDH1A1, NADH fluorescence, propionaldehyde substrate; 220,000 compounds, 7.3% hits; AID 1030; Potency, µM (series often up to 75.3 µM), for the others: at the top dose activity, negative = inhibition, hits mostly inhibitors; active means well fitted inhibition curve with a large enough effect, not every such curve was filed as active; inconclusive means small, poorly fitted or top-dose-only effect, or another doubt; inactive means no such curve, though single readings can be large or run the other way;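 further: potency means the concentration at half of the fitted maximal effect; plate controls were no enzyme wells and a reference inhibitor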
miR-21 reporter: miR-21 reporter, rising signal | AID 2288 | HeLa miR-21 FLuc reporter, luciferase, 48 h | 340,000 tested, under 10 active | Potency, µM (titrated, usually from 38.3 µM), for the others: at the top dose reporter change, positive = more light; active = well fitted rising curve with a large enough effect; inconclusive = small, poorly fitted or top-dose-only effect; inactive = no such curve, though single readings can be large or run the other way;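 also: % of control where 0% means no effect; miR-21 action dims this reporter so a rising signal means less miR-21 action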
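HeLa cells stably expressing CMV-driven firefly luciferase with a downstream miR-21 binding sequence, endogenously expressing miR-21, were treated with titrations (up to about 40uM final) for 48 hours at 37 degree Celsius. Luciferase luminescence was read after lysis.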
Sfp PPTase inh: qHTS Assay for Inhibitors of Bacillus subtilis Sfp phosphopantetheinyl transferase (PPTase); 4'-phosphopantetheinyl transferase ffp (Bacillus subtilis), Q9F4F7; Biochemical Sfp PPTase activity, qHTS; Potency, µM, for inactives: max response, negative = inhibition, most hits filed as inhibitors; hit rate 3.5% among 310,000; AID 1490, 2009; active = well fitted inhibition curve with a large enough effect; inconclusive = small, poorly fitted or top-dose-only effect, or another doubt; inactive = no such curve, though single readings can be large or run the other way;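 also: the enzyme is Sfp with the accession as filed and its product quenches rhodamine fluorescence; potency is read from the fitted curve at half-maximal effect; 0% = enzyme reaction without inhibitor and -100% = no enzyme wells; top concentration of the series not given in the record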
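Compounds were incubated with enzyme (final 15 nM) for 15 min at room temperature before substrate addition started the reaction. Fluorescence at 525 nm excitation, 598 nm emission was recorded immediately and after 30 minutes.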
KDM4E inh: blocks human JMJD2E demethylase activity; B2RXH2; JMJD2E catalytic domain, FDH-coupled NADH fluorescence (FDH is formaldehyde dehydrogenase); Potency, µM (series often up to 57.1 µM), without a hit: top-dose activity change, negative = inhibition, usual class: inhibitors; 230,000 compounds, 1.6% hits; AID 2147; active means well fitted inhibition curve with a large enough effect, not every such curve was filed as active; inconclusive means small, poorly fitted or top-dose-only effect, or another doubt; inactive means no such curve, though single readings can be large or run the other way;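 further: potency means the concentration at half of the fitted maximal effect; 0% = wells with enzyme and -100% = buffer wells without enzyme; nearly all actives have a fitted effect of over 50% in size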
G9a inh: blocks human histone lysine methyltransferase G9a. G9a H3K9 monomethylation, AlphaScreen, 2 h. 350,000 compounds, 8.8% hits. Potency, µM (top dose mostly 102 µM), without a hit: at the top dose activity, negative = inhibition, most hits filed as inhibitors. AID 504332; further: potency means the concentration at half of the fitted maximal effect; on the % scale 0 is the no-effect control and ±100 the full control effect; nearly all actives have a fitted effect of over 75% in size
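G9a (20 nM) was preincubated 15 min with compound, then reacted 2 h at room temperature with 500 nM biotin-H3K9 peptide and 20 µM SAM. Monomethyl-H3K9 detected by AlphaScreen using anti-H3K9me1 antibody.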
The depositor's hits bear a star; ? = inconclusive; / = no result; [ ] = another dose, or the depositor's remark. Compounds with a hit are over-represented: about 13% of the library has one in this group of screens. Unless noted, the call rests on the fitted dose curve; in most records, active means well fitted curve in the direction sought with a large enough effect; inconclusive means small, poorly fitted or top-dose-only effect, or another doubt; inactive means no such curve, though single readings can be large; an effect the other way counts as inactive or inconclusive.

canonical_smiles	Lamin A splicing	ALDH1A1 inh	miR-21 reporter	Sfp PPTase inh	KDM4E inh	G9a inh
Cn1c(N)c(C(=O)CSc2nnc(-c3cccs3)n2C2CC2)c(=O)[nH]c1=O	/	/	/	/	/	50µM*
Cc1ccccc1Nc1nnc(SCC(=O)c2ccc(O)cc2O)s1	/	/	-14%	-12%	/	8.9µM*
Cc1cc(NC(=O)CSc2nnc(Nc3ccccc3C)s2)no1	23%[46 µM]	4%	-2%	6%	7%	?
Cc1ccccc1Nc1nnc(SCC(=O)c2c(N)n(C3CC3)c(=O)[nH]c2=O)s1	/	/	/	/	/	10µM*
CSc1nnc(Nc2ccccc2C)s1	7%	-7%	-37%	17%	1%	28µM*
COC(=O)c1ccc(NC(=O)CC2C(=O)N(c3ccc(Cl)cc3)C(=O)N2Cc2cccs2)cc1 (stereo not given)	/	/	26%	/	/	-32%[59 µM]
Cc1cc(C)cc(-n2ccnc2SCC(=O)c2c(N)n(C3CC3)c(=O)[nH]c2=O)c1	/	/	/	/	/	2.5µM*
CNc1nnc(SCC(=O)c2c(N)n(C3CC3)c(=O)[nH]c2=O)s1	/	/	/	/	/	45µM*
Cc1ccc(Nc2nnc(SCC(=O)c3ccc(Br)s3)s2)c(C)c1	?	?	-16%	2%	13%	11µM*
CCc1ccc(CNC(=O)c2cnc3sc(N4CCCCCC4)nn3c2=O)cc1	1%[46 µM]	/	3%	/	/	9%[59 µM]
CCOc1ccc(N2CC(O)Cn3c2nc2c3c(=O)n(CCCc3ccccc3)c(=O)n2C)cc1 (stereo not given)	-9%	-9%	14%	2%	?	2.5µM*
Cn1c(=O)c2c(nc3n2CC(O)CN3c2ccc(O)cc2)n(C)c1=O (stereo not given)	/	/	10%	4%	/	79µM*
COc1ccc(N2CCn3c2nc2c3c(=O)n(CCCc3ccccc3)c(=O)n2C)c(OC)c1	?	20µM*	2%	19%	-6%	32µM*
COc1ccc(N2CC(C)Cn3c2nc2c3c(=O)n(CCc3ccccc3)c(=O)n2C)cc1 (stereo not given)	4%	2%	1%	5%	3%	3.2µM*
CC(=O)N1CC[C@H]2CC(=O)CC[C@@]21C	/	3%[120 µM]	/	-8%	/	19%[135 µM]
COc1ccc(N2CC(C)Cn3c2nc2c3c(=O)n(Cc3ccccc3)c(=O)n2C)c(OC)c1 (stereo not given)	/	32µM*	-7%	-20%	?	6.3µM*
COc1ccc(N2CCn3c2nc2c3c(=O)n(CCc3ccccc3)c(=O)n2C)c(OC)c1	-4%	?	3%	12%	2%	?
Cc1nc(-c2ccccc2)sc1CCNS(=O)(=O)c1ccc(Br)cc1	?	/	21%	/	/	8%[59 µM]
N=c1c(C(=O)NCC2CCCO2)cc2c(=O)n3ccccc3nc2n1CCCO (stereo not given)	/	/	-7%	/	/	-27%[59 µM]
O=c1c(-c2cccs2)nc2cncnc2n1Cc1ccccc1	8%	?	/	11%	/	4%[0.501 µM]
O=c1cnc2cncnc2n1Cc1ccccc1	?	4µM*	/	8%	/	6%[0.501 µM]
O=c1c(CCc2ccccc2)nc2cncnc2n1Cc1ccccc1	?	25µM*	/	15%	/	4%[0.501 µM]
O=c1cnc2cncnc2n1Cc1ccc(F)cc1	?	10µM*	/	7%	/	11%[0.501 µM]
O=c1cnc2cncnc2n1Cc1ccccc1Cl	?	3.5µM*	/	13%	/	7%[0.501 µM]

Filtered by structure, the entries above with a Cl atom.
canonical_smiles	Lamin A splicing	ALDH1A1 inh	miR-21 reporter	Sfp PPTase inh	KDM4E inh	G9a inh
COC(=O)c1ccc(NC(=O)CC2C(=O)N(c3ccc(Cl)cc3)C(=O)N2Cc2cccs2)cc1 (stereo not given)	/	/	26%	/	/	-32%[59 µM]
O=c1cnc2cncnc2n1Cc1ccccc1Cl	?	3.5µM*	/	13%	/	7%[0.501 µM]

Two successive records already listed, for reference:
canonical_smiles	Lamin A splicing	ALDH1A1 inh	miR-21 reporter	Sfp PPTase inh	KDM4E inh	G9a inh
O=c1cnc2cncnc2n1Cc1ccc(F)cc1	?	10µM*	/	7%	/	11%[0.501 µM]
O=c1cnc2cncnc2n1Cc1ccccc1Cl	?	3.5µM*	/	13%	/	7%[0.501 µM]

The list goes on:
canonical_smiles	Lamin A splicing	ALDH1A1 inh	miR-21 reporter	Sfp PPTase inh	KDM4E inh	G9a inh
COc1cc(NC(=O)C(CC(C)C)NS(=O)(=O)c2ccc3c(c2)oc(=O)n3C)c(C(=O)O)cc1OC (stereo not given)	/	/	-1%	/	/	1%[59 µM]
O=C(COC(=O)CCc1ccc(S(=O)(=O)N2CCOCC2)cc1)NC1CCCCCC1	-7%	-15%	-5%	6%	-6%	-6%[59 µM]
CCCCN(C)C(=O)Cn1c(SCC(=O)Nc2ccc(C)c(C)c2)nc2ccccc21	-10%[46 µM]	/	4%	/	/	15%[59 µM]
COc1ccc(-c2nc3ccccc3o2)cc1NC(=O)c1cccnc1	/	/	-13%	/	/	1%[59 µM]
Cc1cc(N(C)C)ccc1N=Nc1ccc2ncccc2c1	/	-11%	-81%	45µM*	-25%	-47%[2.33 µM]
Cc1ccc2ncccc2c1	/	?	/	/	/	1%[0.501 µM]

Screening results from PubChem.
